The assay deals with T1, human β-FXIIa (HFXIIAB; Molecular Innovations) (human, UniProt P00748 354-362; P00748 373-615).
T1 chain 1: NGPLSCGQR
T1 chain 2: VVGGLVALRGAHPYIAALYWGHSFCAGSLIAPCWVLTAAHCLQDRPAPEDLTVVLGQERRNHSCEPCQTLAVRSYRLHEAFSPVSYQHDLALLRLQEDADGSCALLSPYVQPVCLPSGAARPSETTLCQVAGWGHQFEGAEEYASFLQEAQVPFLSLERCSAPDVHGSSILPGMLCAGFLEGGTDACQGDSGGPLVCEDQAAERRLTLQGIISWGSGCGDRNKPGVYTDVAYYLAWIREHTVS
The assay can be described thus: enzyme inhibition.

The Ki is a dissociation constant, usually derived from enzyme kinetics or from competition with a known ligand. Low values mean a stronger hold on the target, high ones a looser hold on the target. For RCFRLPCAQLSCA [FXII611], the affinity, expressed as Ki, was 32 nM.

For the origin of these results see patent US20180118786A1 (published 2018).
